Columns and labels:
[1] = target: EGF (Homo sapiens, UniProt P01133); experiment: Cross-linking of hot EGF to traps (BS3); type: binding; conditions: for interference of cold NDF with binding of EGF: excess unlabeled NDF
Experimental: FIG. 6: Cross-linking of hot EGF to traps. Bivalent and monovalent traps were incubated with hot EGF, and with/without excess unlabeled EGF or NDF, followed by cross-linking molecule BS3. Bands shown are either the bivalent or monovalent traps cross-linked to hot EGF. As expected, all bivalent traps bind EGF, while only the ErbB1 monovalent trap binds EGF. Addition of cold EGF competes away the binding of hot EGF in all traps as expected. […] Constructs were prepared as described in Example 1.

The chains behind the UniProt entries cited, without tags or fusion partners. Residues count along the entry.
UniProt P01133, 971-1023 limits assumed, species assumed: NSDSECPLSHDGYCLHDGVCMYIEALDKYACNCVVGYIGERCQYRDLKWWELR

[2] = system: BT474 cells; experiment: BT474 cells cultured in conditioned medium from 293T cells expressing trap constructs; type: cell-based; conditions: conditioned medium diluted 1:1 with fresh medium, 48 hrs
Experimental: FIG. 5: To test the functionality of the traps, conditioned medium from the 293T cells was collected, filtered and diluted 1:1 with fresh medium. This diluted, conditioned medium was then used to culture BT474 cells. After 48 hrs, the cells were fixed and stained with a solution of 1% methylene blue in 50% methanol. BT474 cells were cultured in medium from the trap constructs as follow: 1. pEF-IRES-P (control), 2. pEF-ECD13-IRES-P, 3. pEF-ECD14-IRES-P, 4. pEF-ECD3-IRES-P (single trap), 5. pEF-ECD31-IRES-P and 6. pEF-ECD41-IRES-P abbreviations for constructs are defined above in FIG. 3.
To test the functionality of the binding molecules, conditioned medium from the 293T cells was collected, filtered and used to culture BT474 cells.

Substance	interference of cold NDF with binding of EGF [1]	also measured
ErbB1-ErbB3: double trap: ErbB1 ectodomain portion (to V500) amino terminal, (Gly4Ser)3 linker, ErbB3 ectodomain portion (to L499), TEV site, His tag	seemed to interfere with the binding of EGF	
ErbB3-ErbB1: double trap: ErbB3 ectodomain portion amino terminal, (Gly4Ser)3 linker, ErbB1 ectodomain portion carboxy terminal, His tag	not	
ErbB1 monovalent trap: monovalent trap containing the ErbB1 ligand binding ectodomain portion		binding of hot EGF (cross-linked band) ([1]; hot EGF, cross-linker BS3): binds EGF
pEF-ECD14-IRES-P: double trap: ErbB1 ectodomain portion amino terminal, (Gly4Ser)3 linker, ErbB4 ectodomain portion (to L496) carboxy terminal, His tag		cell number [2]: significant reduction in cell number
ErbB4-ErbB1: double trap: ErbB4 ectodomain portion amino terminal, (Gly4Ser)3 linker, ErbB1 ectodomain portion carboxy terminal, His tag	not	

— patent publication US20090318346A1, “BIVALENT ErbB LIGAND BINDING MOLECULES AND METHODS FOR THEIR PREPARATION AND USE” (Targeted Molecular Diagnostics, priority 2006, published 2009)
